Earlier results, collected in US20030013684A1, “Agricultural composition” (priority 2001, published 2003).

Settings: cited from earlier work

Structure (SMILES)	water solubility [ppm]
O=C1CCc2cccc3c2N1CC3 [pyroquirone]	4000
COc1cc(OC)nc(NC(=O)NS(=O)(=O)c2ncccc2C(=O)N(C)C)n1 [nicosulfron]	12200
